What was measured:
newly diabetic NOD mice [1] = settings: 56 day observation period, Grinberg-Bleyer et al. (2010); cited from earlier work
newly diabetic NOD mice [2] = assay: Reversal of hyperglycemia in newly diabetic NOD mice; type: in vivo; settings: FIG. 11, individual mice
Description: FIGS. 9A-9C illustrate the ability of coadministered GAD and GABA to reverse hyperglycemia in newly diabetic NOD mice. Mice were considered diabetic after two blood glucose>250 mgs/dL. […] Data shown are blood glucose levels in individual mice given no treatment (FIG. 9A), GABA alone (6 mgs/ml in drinking water) (FIG. 9B), or GABA+GAD/alum (100 μg sc on day 1 and 14) (FIG. 9C). The mice are staggered because they became spontaneously diabetic at different times, we alternated which treatment group they were placed into, and we are still entering mice into the study and monitoring them.
Based on the ability of GAD+GABA therapy to prolong islet graft survival, we tested whether this treatment could reverse hyperglycemia in newly diabetic NOD mice. We are still adding mice into these studies, but the patterns are clear. […] Acad. Sci., U.S.A., 89: 3434-3438), ALG+GCSF reversed T1D in 75% of mice over a 180 day observation period (Parker et al. (2009) Diabetes, 58: 2277-2284) and TL-2 reversed T1D in 60% of mice over a 56 day observation period (Grinberg-Bleyer et al. (2010) J. Exp. Med., 207: 1871-1878). Thus GAD+GABA has a synergistic and robust therapeutic effect.
We now have data showing that administration of IL-2 with GABA can enhance its therapeutic effect, and more efficiently reverse hyperglycemia. […]

## IL-2: interleukin-2, factor that stimulates a regulatory and/or immune response
Newly diabetic NOD mice [1]
  mice in which T1D was reversed: 60%
Newly diabetic NOD mice [2]
  newly diabetic NOD mice that became normoglycemic (blood glucose below 250 mgs/dl): one of three
